Reference: ChEMBL document CHEMBL3286325, “Synthesis and evaluation of three structurally related ¹⁸F-labeled orvinols of different intrinsic activities: 6-O-[¹⁸F]fluoroethyl-diprenorphine ([¹⁸F]FDPN), 6-O-[¹⁸F]fluoroethyl-buprenorphine ([¹⁸F]FBPN), and 6-O-[¹⁸F]fluoroethyl-phenethyl-orvinol ([¹⁸F]FPEO)” (2014)

Amino acid sequences for entries named in this document (tags omitted).
UniProt P41145, whole entry: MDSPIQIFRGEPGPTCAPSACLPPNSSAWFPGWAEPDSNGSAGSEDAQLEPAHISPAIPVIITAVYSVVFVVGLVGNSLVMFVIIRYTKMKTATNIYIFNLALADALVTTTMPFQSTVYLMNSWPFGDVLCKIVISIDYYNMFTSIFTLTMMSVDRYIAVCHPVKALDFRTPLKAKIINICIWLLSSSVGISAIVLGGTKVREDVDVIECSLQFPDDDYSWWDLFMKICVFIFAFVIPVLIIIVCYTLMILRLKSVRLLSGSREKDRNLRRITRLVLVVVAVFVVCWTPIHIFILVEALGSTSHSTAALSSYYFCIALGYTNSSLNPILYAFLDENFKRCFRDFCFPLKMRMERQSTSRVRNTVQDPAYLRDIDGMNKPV
UniProt P41143, whole entry: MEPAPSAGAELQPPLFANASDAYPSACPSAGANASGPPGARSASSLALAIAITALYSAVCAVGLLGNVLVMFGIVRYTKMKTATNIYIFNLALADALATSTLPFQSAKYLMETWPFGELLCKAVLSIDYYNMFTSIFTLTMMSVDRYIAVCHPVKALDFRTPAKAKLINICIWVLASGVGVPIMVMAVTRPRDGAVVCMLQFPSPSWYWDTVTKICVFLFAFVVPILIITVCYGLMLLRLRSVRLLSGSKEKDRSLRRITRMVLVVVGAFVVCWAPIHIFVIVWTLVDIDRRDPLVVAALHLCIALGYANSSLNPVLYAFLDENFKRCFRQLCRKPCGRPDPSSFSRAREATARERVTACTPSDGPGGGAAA
UniProt P35372, whole entry: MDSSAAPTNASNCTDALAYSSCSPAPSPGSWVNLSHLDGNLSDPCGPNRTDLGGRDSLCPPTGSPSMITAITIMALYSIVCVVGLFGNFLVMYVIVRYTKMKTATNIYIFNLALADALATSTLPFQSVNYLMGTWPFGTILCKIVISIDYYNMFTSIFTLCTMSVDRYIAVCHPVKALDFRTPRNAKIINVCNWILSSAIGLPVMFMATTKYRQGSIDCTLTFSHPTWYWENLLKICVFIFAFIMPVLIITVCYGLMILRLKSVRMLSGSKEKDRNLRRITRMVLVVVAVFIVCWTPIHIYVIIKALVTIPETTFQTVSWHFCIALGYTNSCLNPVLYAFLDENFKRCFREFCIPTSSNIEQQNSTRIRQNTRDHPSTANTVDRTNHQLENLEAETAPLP

Tests used:
[1] = target: Kappa-type opioid receptor (Homo sapiens) (UniProt P41145); assay: Agonist activity at human cloned kappa opioid receptor expressed in HEK293 cells assessed as stimulation of [35S]GTPgammaS binding at 1 nM relative to U69593
[2] = target: Delta-type opioid receptor (Homo sapiens) (UniProt P41143); assay: Agonist activity at human cloned delta opioid receptor expressed in CHO cells assessed as stimulation of [35S]GTPgammaS binding at 1 nM relative to DPDPE
[3] = target: Mu-type opioid receptor (Homo sapiens) (UniProt P35372); assay: Agonist activity at human cloned mu opioid receptor expressed in CHO cells assessed as stimulation of [35S]GTPgammaS binding at 1 nM relative to DAMGO

SMILES	Activity [1]	Activity [2]	Activity [3]
CC(C)(C)[C@@](C)(O)[C@H]1C[C@@]23CC[C@]1(OCCF)[C@@H]1Oc4c(O)ccc5c4[C@@]12CCN(CC1CC1)[C@@H]3C5	43%	9%	55%
CN1CC[C@]23c4c5ccc(O)c4O[C@H]2[C@]2(OCCF)C=C[C@@]3(C[C@@H]2[C@@](C)(O)CCc2ccccc2)[C@H]1C5	95%	92%	–
CC(C)(O)[C@H]1C[C@@]23CC[C@@]1(OCCF)[C@@H]1Oc4c(O)ccc5c4[C@@]12CCN(CC1CC1)[C@@H]3C5	70%	22%	12%
